# Yeast mating assay B: variants of the scFv Ab-14

The target is the same throughout: PDVDLGDISGINAS, from the HR2 region of SARS-CoV-2 spike.

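The parent was found by panning a naive human phage display library on the peptide. The variants were designed computationally from a first round of random CDR variants and then made and measured. Group labels follow the data file (Ctrl: baseline library sampled from a position-specific scoring matrix, with some repeated check sequences; Rand: our label for a block that the file lists under HC and that is probably the random mutants of the ten best first-round binders; GP: Gaussian process model; GPLM: also part of the Gaussian process libraries; HC: hill climbing; Gen: genetic algorithm; Gibbs: Gibbs sampling; a sequence that several methods proposed may carry one label only). The assay is AlphaSeq: two haploid yeast populations carry antibody and antigen on their surface. The frequency of each diploid, read from paired DNA barcodes, reflects how well the two displayed proteins bind. A regression on co-assayed BCL2-family reference pairs converts the normalised counts of each replicate to an apparent Kd. There are six technical replicates.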

Ab-14 is the parent antibody, in scFv form: VH, then a (GGGGS)3 linker, then VL. The light chain is unchanged in all variants.
VH: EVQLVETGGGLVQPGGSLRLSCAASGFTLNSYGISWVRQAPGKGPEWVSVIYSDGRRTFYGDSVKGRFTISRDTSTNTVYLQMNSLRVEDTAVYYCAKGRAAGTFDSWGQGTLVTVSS
VL: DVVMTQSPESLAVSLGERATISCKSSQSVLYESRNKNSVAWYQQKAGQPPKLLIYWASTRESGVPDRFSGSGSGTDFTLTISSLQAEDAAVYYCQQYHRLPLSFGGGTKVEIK

The parent's heavy chain CDRs are GFTLNSYGIS, VIYSDGRRTFYGDSVK, GRAAGTFDS; each variant's own CDRs replace them letter for letter. This list holds designs with at most six substitutions. Numbers give log10(Kd / nM), so 0 is 1 nM and 3 is 1 µM. Smaller is tighter. Averages over replicates are reported, and they cover detected replicates only. An entry "nd" has no value in the source: the pair was not observed among the diploids in any replicate. This suggests poor binding but is not conclusive. In the paper, a design with two or fewer of six values counts as a poor binder. Of ten entries with the parent sequence, four were seen in most replicates (averages 0.34 to 2.37), three in one and three in none, so single entries are noisy. The range of this assay differs from that of the first round, and the authors advise against merging the two. Empty control strains, which show no peptide, gave a signal in 1% of pairings with all heavy chain designs; the median was 2.08 and 95% of these signals were weaker than 0.84. No background was subtracted.

With GFNLNSYGIS / VIYSDGRRTFYADKVK / GRNAGTFDS [GP_Gen] the result was 0.71 (6 of 6 replicates).
With GFTINSYGIS / VIYSDGRRTFYGDSVK / GRAALTFDS [Ctrl] the result was nd (0 of 6 replicates).
With GFTLNEYGIS / VIYSDGRRTFYGDSVK / GRIAGTFDT [GPLM_Gen] the result was -0.18 (4 of 6 replicates).
With GFTLNSYGIS / VIYSDGYRTFYGDSVK / GRAAGTFLS [Ctrl] the result was nd (0 of 6 replicates).
With GFWLNEYGIS / VIYSDGRRTFYKDSVK / GRFAGTFDS [GP_HC] the result was 1.69 (4 of 6 replicates).
With RFKLNSYGIS / VIYSDGRRTFYIDSVK / GRIAGTFDS [GP_HC] the result was 0.49 (1 of 6 replicates).
With GFTLNSYGIS / VIYSDGRRTFYKDSVK / GQTAGTFDK [GP_Gibbs] the result was 0.85 (3 of 6 replicates).
With SFELNSYGIS / VIYSDGRRTFYADSVK / GRTAGTFDS [GP_Gen] the result was 0.95 (6 of 6 replicates).
With GKTLNSYGIS / VIYADGRRTFYGDSVK / GKAAGTFDS [GPLM_Gen] the result was 0.77 (6 of 6 replicates).
With GFTLNSYGIS / VIYSDGKRTFYGDNVK / GQAAGTFDL [GP_Gibbs] the result was 1.40 (3 of 6 replicates).
With SFTLNSYGIS / VIYADGRRTFYGDSVK / GRAAGTFKM [GP_HC] the result was nd (0 of 6 replicates).
With GFTLNQYGIS / VIYSDGMRTFYIDSVK / GRAAGTFDS [GPLM_HC] the result was 1.21 (3 of 6 replicates).
With WFDLNSYGIS / VIYSDGRRTFYHDSVK / GRTAGTFDS [GP_Gibbs] the result was 0.80 (6 of 6 replicates).
With GFQLNSYGIS / VIYSDGLRTFYGDSVK / GRAAGTFDS [Ctrl] the result was nd (0 of 6 replicates).
With GFSLNSYGIS / VIYSDGRRTFYIDSVK / GRVAGTFDS [GPLM_Gen] the result was 1.61 (4 of 6 replicates).
With GFTLNEYGIS / VIYSDGRRTFYGDSVK / GSAAGTKDS [Ctrl] the result was nd (0 of 6 replicates).
With GFLLNQYGAS / VIYSDGRRTFYSDSVK / GRAAGFFDS [Rand] the result was nd (0 of 6 replicates).
With GFPLNEYGIS / VIYSDGRRTFYGDSVK / GRQAGTFDS [GP_Gibbs] the result was 1.22 (3 of 6 replicates).
With GFHLNSYGIS / VIYSDGRRTFYSDSVK / GKLAGTFDS [GP_HC] the result was 0.92 (6 of 6 replicates).
With GFGLNSYGIS / VIYSDGRRTFYHDSVK / GRTAGTFDT [GP_Gibbs] the result was 0.39 (6 of 6 replicates).
With GEDLNSYGIS / VIYSDGRRTFYADSVK / GRTAGTFDS [GP_Gibbs] the result was 0.87 (6 of 6 replicates).
With GLTLNSYGIS / VIYSDGRRTFYGDSVK / GLAAGTFDS [Ctrl] the result was nd (0 of 6 replicates).
With GFTLNDYGIS / VGYSDGRRTQYIDSVK / GRAVGTFDS [Rand] the result was nd (0 of 6 replicates).
With YFSLNSYGIS / VIYADGRRTFYGDSVK / GEAAGTFDS [GP_Gen] the result was 1.05 (5 of 6 replicates).
With GYTINSYGIS / VIYSDGRRTFYGDSVK / GRCAGTWDS [Ctrl] the result was nd (0 of 6 replicates).
With GFDLNSYGIS / VIYSDGRRTFYKDSVK / GKTAGTFDS [GPLM_Gibbs] the result was -0.03 (6 of 6 replicates).
With GFSLNSYGIS / VIYSDGRRTFYGDSVK / GKAAGTFDN [GPLM_Gen] the result was 1.61 (5 of 6 replicates).
With GFTLNSYGIS / VIYSDGRRTFYGDSVK / GQAAGTNDS [Ctrl] the result was nd (0 of 6 replicates).
With GFSLNEYGIS / VIYSDGRRTFYGDDVK / GRNAGTFDS [GP_Gen] the result was 1.55 (5 of 6 replicates).
With GFTLDSYGIS / VIYSDGRRTFYGDSVK / GRQAGTFDS [GPLM_HC] the result was 1.25 (6 of 6 replicates).
With GFTLNEYGIS / VIYSDGRRTMYGDSVK / GRAAGTFIS [GP_HC] the result was 0.01 (6 of 6 replicates).
With GFTLNSYGIS / VIYSDGRRTFYGDSVK / GEEAGTFDT [GPLM_Gen] the result was 1.38 (5 of 6 replicates).
With GFTLNSYGIS / VIYSDGRRTFYGDSVD / GRATGWFDS [Ctrl] the result was 1.45 (1 of 6 replicates).
With GFSLNSYGIS / VIYSDGRRTFYGDSVK / GSAAGTFDT [GPLM_Gibbs] the result was 1.05 (6 of 6 replicates).
With GFSLNSYGIS / VIYSDGRRTFYGDSVK / GSIAGTFDS [GPLM_Gibbs] the result was 0.12 (6 of 6 replicates).
With GFSLNSYGIS / VIYSDGRRTFYADNVK / GEAAGTFDS [GPLM_Gen] the result was 0.52 (6 of 6 replicates).
With GFTLNSYGIS / VIYSDGRRTFYGDNYK / GKAAGTFDS [Ctrl] the result was nd (0 of 6 replicates).
With GFVLNSYGIS / VIYSDGRRTFYGDSVK / GQAEGTFDS [Ctrl] the result was nd (0 of 6 replicates).
With GFTLNSYGIS / VIYSDGRRTFYSDSVK / GQMAGTFDT [GP_HC] the result was 0.30 (6 of 6 replicates).
With SFSLNSYGIS / VIYSDGRRTFYADSVK / GRTAGTFDS [GPLM_Gen] the result was 1.09 (6 of 6 replicates).
With GFTLNEYGIS / VIYSDGKRTFYGDAVK / GRTAGTFWS [GP_Gibbs] the result was nd (0 of 6 replicates).
With GFTLNMYGIS / VIYSDGRRTDYSDSVK / GRAFGTFDS [Rand] the result was 2.03 (2 of 6 replicates).
With GFSLNSYGIS / VIYSDGRRTFYGDSVK / GRTAGTFDS [GPLM_Gen] the result was 1.15 (5 of 6 replicates).
With GFLLNDYGIS / VIYSDGRRTFYGDSVK / GKTAGTFDS [GPLM_Gibbs] the result was nd (0 of 6 replicates).
With SFTLNSYGIS / VIYSDGRRTFYIDSVK / GRIAGTFDS [GP_HC] the result was nd (0 of 6 replicates).
With GETLNSYGIS / VIYSDGRRTFYHDSVK / GRAAGAFDS [Ctrl] the result was nd (0 of 6 replicates).
With GFELNRYGIS / VIYSDGRRTAYQDSVK / GRAAGTFDS [GP_HC] the result was 0.64 (6 of 6 replicates).
With HFDLNSYGIS / VIYSDGRRTFYIDSVK / GRQAGTFDS [GP_Gibbs] the result was 1.63 (5 of 6 replicates).
With HFTLNEYGIS / VIYSDGRRTFYRDSVK / GRTAGTFDS [GP_HC] the result was nd (0 of 6 replicates).
With GFDLNSYGIS / VIYSDGRRTFYGGDVK / GRAAGTFDS [Ctrl] the result was 1.85 (4 of 6 replicates).
With GFTLNEYGIS / VIYSDGRRTFYTDSVK / GEFAGTFDS [Rand] the result was 1.45 (2 of 6 replicates).

Again, the first 3 entries without any signal:

Variant GFTINSYGIS / VIYSDGRRTFYGDSVK / GRAALTFDS [Ctrl] showed nd (0 of 6 replicates).
Variant GFTLNSYGIS / VIYSDGYRTFYGDSVK / GRAAGTFLS [Ctrl] showed nd (0 of 6 replicates).
Variant SFTLNSYGIS / VIYADGRRTFYGDSVK / GRAAGTFKM [GP_HC] showed nd (0 of 6 replicates).

Data: MIT Lincoln Laboratory AlphaSeq set, Li et al. 2023, doi:10.1038/s41467-023-39022-2, as distributed in FLAb.